Measured values as given in patent US20080009480A1, “CYCLOPENTA[b][1,4]DIAZEPINO[6,7,1-hi]INDOLES AND DERIVATIVES” (Wyeth, priority 2000, published 2008).

Sequences of proteins named here, by UniProt entry; tags and fusion partners are left off. Residues count along the entry.
UniProt P28335, 33-458: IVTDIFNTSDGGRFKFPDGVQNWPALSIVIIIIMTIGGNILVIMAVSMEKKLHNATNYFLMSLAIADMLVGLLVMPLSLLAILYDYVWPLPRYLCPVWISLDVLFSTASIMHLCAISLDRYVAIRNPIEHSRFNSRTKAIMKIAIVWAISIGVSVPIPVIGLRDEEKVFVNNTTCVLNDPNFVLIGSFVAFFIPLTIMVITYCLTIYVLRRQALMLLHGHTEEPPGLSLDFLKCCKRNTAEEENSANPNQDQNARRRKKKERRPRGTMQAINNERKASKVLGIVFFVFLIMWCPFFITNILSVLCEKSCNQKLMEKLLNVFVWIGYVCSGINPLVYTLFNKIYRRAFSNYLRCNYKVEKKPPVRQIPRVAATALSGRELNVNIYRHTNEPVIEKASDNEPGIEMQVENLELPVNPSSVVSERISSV

Legend:
[1] = target: human 5-hydroxytryptamine2C (h5HT2C) receptor (Homo sapiens, UniProt P28335); assay: 5HT2C receptor binding test procedure ([125I]DOI displacement, CHO cell membranes); details: reference compounds; [125I]DOI binding, h5HT2C in CHO membranes; read-out: Ki value and 95% confidence interval
human 5-HT2C receptor = target: T1, human 5-HT2C receptor (Homo sapiens, UniProt P28335); assay: Stimulation of [3H] inositol monophosphate production by 5HT2C agonists in transfected CHO cells; type: cell-based
T1 construct: expressed in transfected cells; host or cells: CHO cells

**Q.** Which Ki [1] does the source give for `Clc1cccc(N2CCNCC2)c1` [mCPP, meta-chlorophenylpiperazine, reference compound] here?
**A.** The Ki was 6.5 nM.

**Q.** What about the “EMAX (relative to 5-HT)” value (human 5-HT2C receptor; reference compound, relative to 5-HT) of the same compound?
**A.** Its value is 60%.

**Q.** What about the EC50 (human 5-HT2C receptor; reference compounds, [3H]IP1 production, CHO cells with human 5-HT2C) of the same compound?
**A.** The EC50 was 46.8 nM.
